Experimental findings from publication PMC4804635 (European journal of pharmacology, 2016) are described below.

By UniProt entry, the sequences of proteins in these tests, tags left out. Residues count along the entry.
UniProt Q9BYF1, 18-805: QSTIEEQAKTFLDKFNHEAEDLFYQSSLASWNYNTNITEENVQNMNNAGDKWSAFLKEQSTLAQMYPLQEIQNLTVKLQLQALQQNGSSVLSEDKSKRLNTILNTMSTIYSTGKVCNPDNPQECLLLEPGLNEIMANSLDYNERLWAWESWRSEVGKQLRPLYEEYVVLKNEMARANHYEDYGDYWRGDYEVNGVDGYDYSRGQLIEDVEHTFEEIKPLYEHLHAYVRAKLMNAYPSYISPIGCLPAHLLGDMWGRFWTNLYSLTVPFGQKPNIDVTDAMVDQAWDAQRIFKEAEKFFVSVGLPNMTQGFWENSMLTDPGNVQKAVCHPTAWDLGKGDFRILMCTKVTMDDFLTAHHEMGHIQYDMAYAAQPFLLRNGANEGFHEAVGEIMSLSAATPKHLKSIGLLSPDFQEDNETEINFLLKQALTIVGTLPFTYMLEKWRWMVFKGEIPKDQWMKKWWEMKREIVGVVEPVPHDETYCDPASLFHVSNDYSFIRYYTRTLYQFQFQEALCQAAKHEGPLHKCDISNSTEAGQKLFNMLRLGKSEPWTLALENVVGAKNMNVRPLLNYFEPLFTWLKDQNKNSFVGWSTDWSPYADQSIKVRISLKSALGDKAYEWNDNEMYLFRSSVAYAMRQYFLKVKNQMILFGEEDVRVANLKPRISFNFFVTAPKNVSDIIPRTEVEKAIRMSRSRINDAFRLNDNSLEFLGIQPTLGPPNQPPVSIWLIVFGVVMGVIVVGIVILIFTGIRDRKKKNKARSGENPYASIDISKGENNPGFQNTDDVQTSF
UniProt Q8R0I0, 18-805: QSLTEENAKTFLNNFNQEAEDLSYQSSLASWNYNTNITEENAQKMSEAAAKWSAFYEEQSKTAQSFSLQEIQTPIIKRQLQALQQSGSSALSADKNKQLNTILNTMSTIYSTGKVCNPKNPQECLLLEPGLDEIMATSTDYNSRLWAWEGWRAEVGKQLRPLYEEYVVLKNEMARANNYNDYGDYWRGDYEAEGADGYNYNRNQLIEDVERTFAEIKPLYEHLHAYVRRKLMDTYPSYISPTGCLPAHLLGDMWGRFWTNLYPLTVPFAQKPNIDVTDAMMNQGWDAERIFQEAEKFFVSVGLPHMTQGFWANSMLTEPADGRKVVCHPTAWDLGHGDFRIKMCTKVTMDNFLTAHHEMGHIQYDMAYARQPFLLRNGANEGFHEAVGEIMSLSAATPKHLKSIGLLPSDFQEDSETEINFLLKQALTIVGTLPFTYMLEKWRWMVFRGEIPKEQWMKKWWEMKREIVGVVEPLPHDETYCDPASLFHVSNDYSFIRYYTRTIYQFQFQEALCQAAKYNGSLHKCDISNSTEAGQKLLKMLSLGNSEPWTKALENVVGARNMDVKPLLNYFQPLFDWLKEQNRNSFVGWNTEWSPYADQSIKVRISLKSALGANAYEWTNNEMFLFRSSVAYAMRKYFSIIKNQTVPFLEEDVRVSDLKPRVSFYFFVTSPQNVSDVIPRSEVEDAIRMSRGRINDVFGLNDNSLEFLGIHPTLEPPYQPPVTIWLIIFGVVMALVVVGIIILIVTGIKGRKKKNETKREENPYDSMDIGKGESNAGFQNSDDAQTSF

Test [1] deals with ACE2 in human CD34+ cells (Homo sapiens, UniProt Q9BYF1). Briefly: ACE2 activity assay in human CD34+ cell lysates.
In another test the target is T1, ACE in murine heart (Mus musculus, UniProt P09470).
T1 sequence (P09470 35-1312): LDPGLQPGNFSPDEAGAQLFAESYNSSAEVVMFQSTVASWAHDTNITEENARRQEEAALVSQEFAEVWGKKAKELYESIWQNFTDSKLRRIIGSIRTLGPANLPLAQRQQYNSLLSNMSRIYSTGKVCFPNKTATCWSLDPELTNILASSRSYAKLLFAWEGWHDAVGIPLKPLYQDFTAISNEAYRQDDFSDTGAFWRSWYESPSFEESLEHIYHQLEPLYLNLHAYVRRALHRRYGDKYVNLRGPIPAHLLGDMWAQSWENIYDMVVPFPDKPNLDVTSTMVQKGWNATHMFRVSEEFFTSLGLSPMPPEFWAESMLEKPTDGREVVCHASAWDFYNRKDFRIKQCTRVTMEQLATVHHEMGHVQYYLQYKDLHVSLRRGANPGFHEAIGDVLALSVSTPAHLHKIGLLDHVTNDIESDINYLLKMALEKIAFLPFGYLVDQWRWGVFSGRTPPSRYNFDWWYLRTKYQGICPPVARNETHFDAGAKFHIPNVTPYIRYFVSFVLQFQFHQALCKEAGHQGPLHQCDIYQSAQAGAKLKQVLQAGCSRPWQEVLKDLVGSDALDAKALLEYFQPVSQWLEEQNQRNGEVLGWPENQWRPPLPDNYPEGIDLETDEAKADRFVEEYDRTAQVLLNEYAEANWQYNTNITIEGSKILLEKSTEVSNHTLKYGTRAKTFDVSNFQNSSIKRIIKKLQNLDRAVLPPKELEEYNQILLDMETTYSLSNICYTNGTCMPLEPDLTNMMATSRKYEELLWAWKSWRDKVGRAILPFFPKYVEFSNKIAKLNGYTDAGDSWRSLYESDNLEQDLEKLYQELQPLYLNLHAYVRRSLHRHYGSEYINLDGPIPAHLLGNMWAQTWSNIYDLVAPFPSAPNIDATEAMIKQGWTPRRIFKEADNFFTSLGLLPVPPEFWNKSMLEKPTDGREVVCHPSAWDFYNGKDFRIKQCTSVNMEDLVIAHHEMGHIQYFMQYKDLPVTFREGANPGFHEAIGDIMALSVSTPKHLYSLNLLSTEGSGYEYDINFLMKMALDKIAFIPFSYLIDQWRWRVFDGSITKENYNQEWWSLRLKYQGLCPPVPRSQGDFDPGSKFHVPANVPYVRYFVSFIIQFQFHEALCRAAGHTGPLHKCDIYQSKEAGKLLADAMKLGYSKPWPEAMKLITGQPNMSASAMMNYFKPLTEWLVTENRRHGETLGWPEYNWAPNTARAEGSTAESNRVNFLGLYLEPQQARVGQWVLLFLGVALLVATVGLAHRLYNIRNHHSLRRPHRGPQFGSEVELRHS
Briefly: ACE activity assay in murine heart homogenate. It counts as biochemical. The conditions noted are these: tissue lysate, 4 h.

The next test has as its target ACE2 in murine heart (Mus musculus, UniProt Q8R0I0). Briefly: ACE2 activity assay in murine heart homogenate. The class given is biochemical.
The next test has as its target Murine MNC ACE2 (Mus musculus, UniProt Q8R0I0). The test is described as follows: ACE2 activity assay in murine mononuclear cell lysates.
For test [2], the target named is ACE2 in murine Lin- cells (Mus musculus, UniProt Q8R0I0). The test is described as follows: ACE2 activity assay in murine Lin- cell lysates. The note with it: cell lysate, 4 h, n=5. The class given is biochemical.
A further test addresses T2, Murine MNC ACE (Mus musculus, UniProt P09470).
T2 sequence (P09470 35-1312): T1 sequence (P09470 35-1312)
Briefly: ACE activity assay in murine mononuclear cell lysates. The conditions noted are these: cell lysate, 4 h.

Another test addresses Human MNC ACE2 (Homo sapiens, UniProt Q9BYF1). The test is described as follows: ACE2 activity assay in human mononuclear cell lysates. The conditions noted are these: listed as MLN-4760-B.
The target in a further test is T3, ACE in murine Lin- cells (Mus musculus, UniProt P09470).
T3 sequence (P09470 35-1312): T1 sequence (P09470 35-1312)
The test is described as follows: ACE activity assay in murine Lin- cell lysates. It counts as biochemical. The conditions noted are these: cell lysate, 4 h, n=5.

SMILES strings stand for the structures.

For `CC(C)C[C@H](N[C@@H](Cc1cncn1Cc1cc(Cl)cc(Cl)c1)C(=O)O)C(=O)O` [isomer B, (2S)-2-[[(2S)-3-[3-[(3,5-dichlorophenyl)methyl]imidazol-4-yl]-1-hydroxy-1-oxopropan-2-yl]amino]-4-methylpentanoic acid], the “selectivity for ACE2 over ACE in human CD34+ cells” value in test [1] came out at 63 fold. Further, on ACE in murine heart, the “Imax at ACE in murine heart” value is listed as 20±3%. Further, the “selectivity for ACE2 over ACE in murine heart” value on ACE2 in murine heart was determined as 100 fold. Also, the “Imax at ACE2 in murine heart” value on ACE2 in murine heart (tissue lysate, 4 h) stood at 54±4%. At Murine MNC ACE2, the “selectivity for ACE2 over ACE in murine MNCs” value is 228 fold. Moreover, the “Imax at ACE2 in murine MNCs” value on Murine MNC ACE2 (cell lysate, 4 h) turned out to be 43±1%. In test [2], the “Imax / inhibition of ACE2 in murine Lin- cells” value worked out at 25%. Further, at Murine MNC ACE, the “Imax at ACE in murine MNCs” value was found to be 22±1%. Further, at Human MNC ACE2, the “selectivity for ACE2 over ACE in human MNCs” value is 28 fold. Besides, the “Imax / inhibition of ACE in murine Lin- cells” value at ACE in murine Lin- cells is on record as “less than 10±2%”.
